Protein sequences, listed by entry. Tags and fused reporters are not part of them. Residues count along the entry.
UniProt P41594, 21-1180 isoform 2 limits assumed: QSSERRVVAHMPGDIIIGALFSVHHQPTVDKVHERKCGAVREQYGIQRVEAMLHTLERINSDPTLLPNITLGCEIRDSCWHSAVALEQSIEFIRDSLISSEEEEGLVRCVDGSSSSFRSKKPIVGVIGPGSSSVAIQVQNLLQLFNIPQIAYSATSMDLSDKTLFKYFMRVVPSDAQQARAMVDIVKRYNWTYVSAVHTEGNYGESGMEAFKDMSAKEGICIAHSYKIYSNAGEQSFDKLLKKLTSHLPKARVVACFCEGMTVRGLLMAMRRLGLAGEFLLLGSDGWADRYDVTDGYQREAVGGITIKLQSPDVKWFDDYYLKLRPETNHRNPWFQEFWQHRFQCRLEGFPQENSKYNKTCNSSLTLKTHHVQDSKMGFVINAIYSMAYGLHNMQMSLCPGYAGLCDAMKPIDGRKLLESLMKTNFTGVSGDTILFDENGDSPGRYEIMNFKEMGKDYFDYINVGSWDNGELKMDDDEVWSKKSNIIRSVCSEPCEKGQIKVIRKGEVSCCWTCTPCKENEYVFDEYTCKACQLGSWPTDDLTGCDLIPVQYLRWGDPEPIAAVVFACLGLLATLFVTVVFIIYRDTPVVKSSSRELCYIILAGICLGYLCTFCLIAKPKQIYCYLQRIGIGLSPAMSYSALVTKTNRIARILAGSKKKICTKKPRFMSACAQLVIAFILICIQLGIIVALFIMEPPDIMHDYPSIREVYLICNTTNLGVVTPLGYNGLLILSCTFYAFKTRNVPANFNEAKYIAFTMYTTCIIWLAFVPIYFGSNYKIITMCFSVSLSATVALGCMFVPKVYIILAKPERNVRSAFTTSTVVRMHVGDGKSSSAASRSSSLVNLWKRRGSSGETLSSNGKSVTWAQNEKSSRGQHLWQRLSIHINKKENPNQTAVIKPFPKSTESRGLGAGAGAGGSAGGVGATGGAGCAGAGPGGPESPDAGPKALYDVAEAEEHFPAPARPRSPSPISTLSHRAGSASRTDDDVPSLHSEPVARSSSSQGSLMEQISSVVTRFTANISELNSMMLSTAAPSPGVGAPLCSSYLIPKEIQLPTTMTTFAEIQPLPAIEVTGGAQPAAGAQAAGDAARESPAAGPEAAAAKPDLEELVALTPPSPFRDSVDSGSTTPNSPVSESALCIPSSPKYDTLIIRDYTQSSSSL

According to US9029366B2, “Substituted bicyclic alkoxy pyrazole analogs as allosteric modulators of mGluR5 receptors” (Vanderbilt University, priority 2012, dated 2015):

Biological target: human mGluR5 (Homo sapiens, UniProt P41594)
Test: Cell-based functional Ca2+ mobilization assay (FDSS), potentiation of glutamate EC20 response, HEK293A cells transfected with human mGluR5a (H10H or H12H cell line)
Details: H10H cell line expressing recombinant human mGluR5, in presence of glutamate EC20, ** = compound is an antagonist; for Emax (%): % of maximal glutamate response

In the case of `O=C(c1ccccc1F)N1CCn2nc(OCc3ccccc3)cc2C1`, the “Emax (%)” value is reported as 71.5% and the pEC50 is reported as 6.84.

With `N#Cc1ccc(COc2cc3n(n2)CCN(C(=O)c2cccc(F)c2)C3)cc1` the “Emax (%)” value was 28% and the pEC50 was under 4.52.

For `O=C(c1ncccc1F)N1CCn2nc(OCc3ccccc3)cc2C1`, the “Emax (%)” value was 48.5% and the pEC50 was 5.33.

`O=C(C1CC1)N1CCn2nc(OCc3ccccc3)cc2C1` was tested, and the “Emax (%)” value was 10** % and the pEC50 was < 4.52 ··.

In the case of `O=C(c1c(F)cccc1F)N1CCn2nc(OCc3ccccc3)cc2C1`, the “Emax (%)” value is reported as 59% and the pEC50 is reported as 6.66.

For `COc1nccnc1C(=O)N1CCn2nc(OCc3ccccc3)cc2C1`, the “Emax (%)” value was 11% and the pEC50 was under 4.52.

With `O=C(COCC(F)(F)F)N1CCn2nc(OCc3ccccc3)cc2C1` the “Emax (%)” value was 31% and the pEC50 was under 5.00.

`O=C(c1cccc(F)c1)N1CCn2nc(OCc3cccc(F)c3)cc2C1` was tested, and the “Emax (%)” value was 55.5% and the pEC50 was 6.8.

`O=C(c1ccc(F)nc1)N1CCn2nc(OCc3ccccc3)cc2C1` was tested, and the “Emax (%)” value was 61% and the pEC50 was 5.00.

For `O=C(c1cccc(F)c1)N1CCn2nc(OCc3ccccc3F)cc2C1`, the “Emax (%)” value was 64% and the pEC50 was 6.61.

`CC1CN(C(=O)c2ccc(F)cc2)Cc2cc(OCc3ccccc3)nn21` (stereo not shown) was tested, and the “Emax (%)” value was 60% and the pEC50 was 6.64.

With `O=C(C1CCCC1)N1CCn2nc(OCc3ccccc3)cc2C1` the “Emax (%)” value was 47% and the pEC50 was 6.71.

`N#Cc1cccc(COc2cc3n(n2)CCN(C(=O)c2cc(F)ccc2F)C3)c1` was tested, and the “Emax (%)” value was 66% and the pEC50 was 7.09.

In the case of `O=C(c1ccc(F)cc1)N1CCCn2nc(OCc3cccc(F)c3)cc2C1`, the “Emax (%)” value is reported as 69% and the pEC50 is reported as 6.69.

For `N#Cc1ccc(COc2cc3n(n2)CCN(C(=O)c2ccc(F)cc2)C3)cc1`, the “Emax (%)” value was 58% and the pEC50 was 6.06.

With `O=C(c1cccc(F)c1)N1CCn2nc(OCc3ccc(F)cc3)cc2C1` the “Emax (%)” value was 41% and the pEC50 was 6.3.

`N#Cc1cccc(COc2cc3n(n2)CCN(C(=O)c2ccccc2F)C3)c1` was tested, and the “Emax (%)” value was 48% and the pEC50 was 6.91.

In the case of `O=C(c1ccc(F)cc1)N1CCCn2nc(OCc3ccccc3)cc2C1`, the “Emax (%)” value is reported as 66% and the pEC50 is reported as 6.76.

`O=C(c1ccc(F)cc1)N1CCn2nc(OCc3cccnc3)cc2C1` was tested, and the “Emax (%)” value was 43% and the pEC50 was under 5.00.

With `O=C(C1CC2CCC1C2)N1CCn2nc(OCc3ccccc3)cc2C1` (stereo not shown) the “Emax (%)” value was 71% and the pEC50 was 6.76.
